Data: PMC9633773, “Discovering cell-active BCL6 inhibitors: effectively combining biochemical HTS with multiple biophysical techniques, X-ray crystallography and cell-based assays” (Scientific Reports, 2022)
pIC50, pKd: −log10 of the molar value.

Legend:
[1] = target: full-length BCL6/SMRT protein–protein interaction in HEK293T cells (Homo sapiens, UniProt P41182); assay: NanoBRET cellular assay; type: cell-based
[2] = target: Trx-6His-BCL6 BTB (Homo sapiens, UniProt P41182); assay: TR-FRET assay, Trx-6His-BCL6 BTB / BCOR-A633 peptide; type: biochemical; conditions: 1 nM BCL6 BTB domain
[3] = target: T1, BCL6 BTB domain (Homo sapiens, UniProt P41182); assay: Surface plasmon resonance (SPR); conditions: immobilised BCL6 BTB, pH 6.0, 1:1 equilibrium model; for pKd: read-out: SPR KD;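 for SPR KD: Fail means no measurable KD from unsaturated curves poor sensorgrams or non-1:1 stoichiometry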
[4] = HPLC aqueous solubility; conditions: pH 7.4, PBS, 1% DMSO
[5] = target: T1, BCL6 BTB domain; assay: Fluorescence polarisation (FP) competition assay with BCOR-AF633 peptide; conditions: repurchased hits; for pIC50: read-out: FP IC50 Geometric Mean, up to 2 mM, n=1-6
[6] = target: T2, BCL6 BTB (Homo sapiens, UniProt P41182); assay: Thermal shift assay (TSA); conditions: measured at 200 and 400 µM compound; binder if ≥ 1 °C
[7] = NMR kinetic solubility; conditions: 500 µM final compound concentration, 20 mM HEPES buffer pH 8, 2% or 5% DMSO
[8] = target: T2, BCL6 BTB; assay: 19F ligand-observed NMR TFA-WVIP-NH2 peptide displacement assay; type: binding; conditions: 200 µM compound, 200 µM TFA-WVIP-NH2, 6 µM BCL6 BTB; mean ± SD, n=2; hit if ≥ 30%

| Compound | Nano BRET pIC50 mean ([1]; BCL6.NanoLuc/SMRT.HaloTag configuration, 6 h) | pIC50 ([1]; read-out: Nano BRET Geo Mean IC50, BCL6.NanoLuc/SMRT.HaloTag configuration, 6 h, geometric mean n=3–4) | TR-FRET pIC50 mean [2] | SPR KD [3] | Sol. (by HPLC, marked *) [4] | pIC50 [5] | FP pIC50 Mean [5] | TSA Tm (thermal shift) [6] | pKd [3] | Sol. (NMR kinetic solubility) [7] | 19F LO-NMR, % peptide displaced [8] |
| --- | --- | --- | --- | --- | --- | --- | --- | --- | --- | --- | --- |
| Cn1c(=O)n(CCC(C)(C)O)c2cc(Nc3ccnc(Cl)c3C#N)ccc21 | 5.11 | 5.11 | 6.07 | – | – | – | – | – | – | – | – |
| CN(Cc1ccc2c(c1)OCO2)c1nc2c(cnn2C(C)(C)C)c(=O)[nH]1 | – | – | – | Fail | 21 µM | 3.72 | 3.72 | 0 ºC | – | – | – |
| COc1ccc(C2CC(c3ccc(Cl)cc3)Nc3ncnn32)c(OC)c1OC (stereo not shown) | – | – | – | – | – | 3.70 | 3.70 | 0.5-1 ºC | 3.25 | 91 µM | 52 ± 3% |
| CC1CCc2nc(SCC(=O)NCC(=O)O)c(C#N)c(C(F)(F)F)c2C1 (stereo not shown) | – | – | – | – | – | 4.11 | 4.11 | 1-3.5 ºC | 3.39 | 466 µM | 69.5 ± 8% |
| Fc1ccc(C2CC(c3cccc(Cl)c3)n3ncnc3N2)cc1 (stereo not shown) | – | – | – | – | – | 3.77 | 3.77 | – | – | < 30 µM | – |
| CCC1CCc2nc(SCC(=O)NCC(=O)O)c(C#N)c(C(F)(F)F)c2C1 (stereo not shown) | – | – | – | – | – | 4.10 | 4.10 | – | 2.98 | 494 µM | 75 ± 7% |
